US20220251158A1, “INTERMEDIATE FILAMENT-DERIVED PEPTIDES AND THEIR USES” (UNIVERSITAT DE LLEIDA, priority 2019, published 2022)

Key:
Format in all cases: cell-based, human
Details in all cases: 55 μM
Jurkat-T cells = assay: Mortality of Jurkat cells (Annexin V/PI flow cytometry)
Experimental: FIG. 19—Representative dot plots of apoptosis assay of Jurkat cells after culturing them with different peptides. Annexin V and PI positive cells were analysed after culturing 1×10^5 cells for 1 hour, 24 hours or 48 hours with peptide 72, or DIF-P, or DIF-P3K, or DIF-P8R or without stimulus (n=4).
(§1) HL-60, Jurkat and NALM-6 cells were grown and maintained in complete culture medium in a humidified 5% CO2, atmosphere at 37° C. […] Human splenocytes from buffy coats were collected by density gradient using Histopaque 1077 (Histopaque®-1077, 10771 sigma) as described elsewhere (Johnston, L., Harding, S. A. & La Flamme, A. C. Comparing methods for ex vivo characterization of human monocyte phenotypes and in vitro responses. Immunobiology 2015, 220, 1305-1310). Cells from bone marrow were obtained disrupting femur and tibia as explained elsewhere too (Liu, X. & Quan, N. Immune Cell Isolation from Mouse Femur Bone Marrow. Bio-protocol 5, 2015). Monocytes and neutrophils from bone marrow were purified using the Stemcell kits (19861 and 19762 subsequently) and the kit protocol was followed. Cells were incubated in 96-well tissue culture plates (4×10^5/well for primary cells and 1×10^5 for cells lines) at 37° C. in 5% CO2 in complete culture medium using 55 μM of different Peripherin peptides. For proliferation assays, cells were labelled with CFSE (C34554, life technologies). After 1 hour, 24 hours or 48 hours, cells were analysed by flow cytometry and culture supernatants stored at −80° C. until use.
(§2) For cell death and apoptosis analysis, 400.000 of primary cells or 100.000 of cell line cells were incubated in 96-well plates in 200 μL of complete culture medium for 24 h at 37° C. and 5% CO2 in the absence or presence of 55 μM of different peptides. After 1 hour, 24 hours or 48 hours, apoptosis was measured by CFBlue Annexin V Apoptosis Detection Kit with PI (ANXVKCFB-100T, Immunostep), following kit protocol. […] Cell suspensions were analysed by flow cytometry using FACS CANTO II instrumentation (BD, Biosciences, San Jose, Calif.) and Flowjo (version 8.7) software. […]

HL-60 cells = assay: Mortality of HL-60 cells (Annexin V/PI flow cytometry)
Experimental: FIG. 20—Representative dot plots of apoptosis assay of HL-60 cells after culturing them with different peptides. Annexin V and PI positive cells were analysed after culturing 1×10^5 cells for 1 hour, 24 hours or 48 hours with peptide 72, or DIF-P, or DIF-P3K, or DIF-P8R or without stimulus (n=4).
as §1, §2

NALM-6 cells = assay: Mortality of NALM-6 cells (Annexin V/PI flow cytometry)
Experimental: FIG. 21—Representative dot plots of apoptosis assay of NALM-6 cells after culturing them with different peptides. Annexin V and PI positive cells were analysed after culturing 1×10^5 cells for 1 hour, 24 hours or 48 hours with peptide 72, or DIF-P, or DIF-P3K, or DIF-P8R or without stimulus (n=4).
as §1, §2

Compound: CC[C@H](C)[C@H](NC(=O)[C@H](CCC(=O)O)NC(=O)[C@@H](NC(=O)[C@H](CC(=O)O)NC(=O)[C@H](CC(C)C)NC(=O)[C@H](C)NC(=O)[C@H](CCSC)NC(=O)[C@H](CCCCN)NC(=O)[C@@H](NC(=O)[C@H](CC(N)=O)NC(=O)[C@H](CC(C)C)NC(=O)[C@@H](N)CC(C)C)C(C)C)[C@@H](C)CC)C(=O)N[C@@H](CCCNC(=N)N)C(=O)N[C@@H](CCCNC(=N)N)C(=O)N[C@@H](CCCNC(=N)N)C(=O)N[C@@H](CCCNC(=N)N)C(=O)N[C@@H](CCCNC(=N)N)C(=O)N[C@@H](CCCNC(=N)N)C(=O)N[C@@H](CCCNC(=N)N)C(=O)N[C@@H](CCCNC(=N)N)C(=O)O [DIF-P8R]
- mortality percentage (Jurkat-T cells; 1 h): 57%
- mortality percentage (Jurkat-T cells; 24 h): 71%
- mortality percentage (Jurkat-T cells; 48 h): 77%
- mortality percentage (HL-60 cells; 1 h): 85%
- mortality percentage (HL-60 cells; 24 h): 75%
- mortality percentage (HL-60 cells; 48 h): 78%
- mortality percentage (NALM-6 cells; 1 h): 85%
- mortality percentage (NALM-6 cells; 24 h): 81%
- mortality percentage (NALM-6 cells; 48 h): 80%
